Measured values taken from PubChem BioAssay (Tox21).
The list shows a part of the results, in another mix than the full data. Records with an inconclusive call do not appear. Some structures have more than one record in an assay (separate samples or runs), and their calls can disagree. Calls of active or inactive are those of the source. Calls follow the shape of the dose curve; as a rule, active = well fitted cell-killing curve with a large enough effect in the repeat runs; inconclusive = weak or mixed curves, or effect the other way; inactive = no such curve, though single readings can be large or run the other way.

Assay: qHTS assay to identify small molecule antagonists of the sonic hedgehog signaling (Shh) pathway - cell viability counter screen (AID 1259367); also: nearly all actives have a fitted effect of over 55% in size
Conditions: NIH/3T3 Gli1-Luc viability, CellTiter-Fluor, 24 h; series mostly up to 92.4 µM; viability change, negative = cytotoxic: at the top concentration
From the text: National Center for Advancing Translational Sciences [NCATS]
NIH Chemical Genomics Center [NCGC]
U.S. Environmental Protection Agency [EPA]
National Institutes of Environmental Health Sciences [NIEHS]
National Toxicology Program [NTP]
U.S. Food and Drug Administration [FDA]
The sonic hedgehog (Shh) pathway is essential for normal embryonic development. Dysregulation of the Shh pathway can cause severe developmental defects in organs. Therefore chemicals that interfere with the pathway are potential developmental toxicants. A cell line designated 3T3Gli1-Luc (DMB/OARSA/CFSAN/FDA, Laurel, MD), a NIH/3T3 derived clone containing stably integrated Gli1-Luc reporter is used to detect chemical interference of the Shh pathway, by changes in the expression of the firefly Luc gene under the control of the Gli1 transcriptional response element. This cell line was used to screen Tox21 libraries for identifying and prioritizing the potential developmental toxicants that interfere Shh pathway. Conditioned medium-stimulated mode was used to screen for chemicals inhibiting Shh signaling. The cytotoxicity of the compounds was tested in parallel by measuring the cell viability using CellTiter-Fluor assay system (Promega, Madison, WI) in the same wells.
Tox21 Assay Protocol Summary:
3T3 Gli1-Luc cells were dispensed at 2,000 per well in 5uL of culture medium into white solid bottom 1536-well plates (Greiner Bio-One, Monroe, NC) using a Multidrop Combi (Thermo Scientific, Waltham, MA) dispenser. The assay plates were incubated at 37 C and 5% CO2 for 4hr, and then 23nL of compounds dissolved in DMSO and positive control were transferred using a Pintool station (Wako, San Diego, CA). The compound transfer was followed by the addition of 1ul conditioned medium or assay buffer using two separate tips of Flying Reagent Dispenser (FRD, Aurora Discovery, San Diego, CA). The assay plates were incubated at 37C and 5% CO2 for 24hr. For viability read, after 23hr of compound treatment, 1uL of CellTiter-Fluor reagent (Promega Corporation, Madison, WI) was added to each well of the assay plates using Flying Reagent Dispenser (FRD, Aurora Discovery, San Diego, CA) and incubated the assay plates at 37C for 1hr. The fluorescence signal was quantified using a ViewLux plate reader (Perkin Elmer, Shelton, CT).
% is scaled to controls: 0 for no effect and ±100 for the full control effect; potency is read from the fitted curve at half-maximal effect.

Row | Structure (SMILES) | viability change, negative = cytotoxic | Potency
1 | COP(=S)(Cl)OC | inactive: 0.336% | 
2 | ClP(Cl)c1ccccc1 | inactive: 4.26% | 
3 | O=P(Cl)(Cl)c1ccccc1 | inactive: 3.99% | 
4 | CN(C(=O)Cc1cccc2occc12)[C@H]1CC[C@@]2(CCCO2)C[C@@H]1N1CCCC1 | inactive: -19.4% | 
5 | CCCCCCCCCCCCCC[P+](CCCCCC)(CCCCCC)CCCCCC |  | active: 48.4 µM
6 | CCOC(=O)Cl | inactive: 1.58% | 
7 | Cc1cc([N+](=O)[O-])c(O)c([N+](=O)[O-])c1 | inactive: -16.6% | 
8 | O=[p+]1oc2ccccc2c2ccccc21 (stereo not given) | inactive: -0.424% | 
9 | O=[As]c1ccccc1 (stereo not given) |  | active: 0.344 µM
10 | O=P(Cl)(Oc1ccccc1)Oc1ccccc1 | inactive: 1.37% | 
11 | CN(N=O)C(=N)N[N+](=O)[O-] | inactive: 1.85% | 
12 | O=[P+](Oc1ccccc1)Oc1ccccc1 | inactive: 4.7% | 
13 | CC(C)OP(=S)(OC(C)C)SCCNS(=O)(=O)c1ccccc1 | inactive: -1.26% | 
14 | CCCCOP(OCCCC)OCCCC | inactive: 0.297% | 
15 | O=C(Cl)OCCOC(=O)Cl | inactive: 2.63% | 
16 | CCOP(=S)(CC)Sc1ccccc1 (stereo not given) | inactive: -3.72% | 
17 | COC(=O)Cl | inactive: 1.56% | 
18 | CCCCC(CC)CO[P+](=O)OCC(CC)CCCC (stereo not given) | inactive: -0.214% | 
19 | O=C(Cl)Oc1ccccc1 | inactive: 3.44% | 
20 | CCNC(C)Cc1ccc2c(c1)OCO2 (stereo not given) | inactive: -5.67% | 
21 | O=[N+]([O-])c1ccc(S(=O)(=O)O)c([N+](=O)[O-])c1 | inactive: 2.98% | 
22 | CCCCO[P+](=O)OCCCC |  | inactive
23 | NC(=O)Nc1ccc([As](=O)(O)O)cc1 |  | inactive
24 | CCC(C)(OOC(C)(C)C)OOC(C)(C)C | inactive: 5.19% [at 19 µM] | 
25 | CC(C)CCCCCCCOP(OCCCCCCCC(C)C)Oc1ccccc1 | inactive: 0.994% | 
